# Apparent affinities of Ab-14 variants for a coronavirus HR2 peptide

Reference: Li et al. 2023, doi:10.1038/s41467-023-39022-2. File: FLAb, binding data.

Binding partner: SARS-CoV-2 spike HR2 peptide, sequence PDVDLGDISGINAS.

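The parent was found by panning a naive human phage display library on the peptide. The variants were designed computationally from a first round of random CDR variants and then made and measured. Group labels follow the data file (Ctrl: baseline library sampled from a position-specific scoring matrix, with some repeated check sequences; Rand: our label for a block that the file lists under HC and that is probably the random mutants of the ten best first-round binders; En: ensemble of fine-tuned language models; GP: Gaussian process model; HC: hill climbing; Gen: genetic algorithm; Gibbs: Gibbs sampling; a sequence that several methods proposed may carry one label only). AlphaSeq pools MATa yeast showing the antibodies with MATalpha yeast showing the peptide. Mating (16 h, 30 °C) was followed by selection of diploids and sequencing of their barcodes. Scores were corrected for input abundance and mapped to Kd with protein pairs of known affinity run in the same pool. Mating was done six times.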

Each scFv is VH, the linker GGGGSGGGGSGGGGS, VL, as in the parent Ab-14, and differs from it in the CDRs of the light chain only.
VH: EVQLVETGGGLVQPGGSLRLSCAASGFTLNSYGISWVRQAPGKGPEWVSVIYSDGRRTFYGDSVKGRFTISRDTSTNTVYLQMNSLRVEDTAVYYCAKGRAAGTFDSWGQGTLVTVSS
VL: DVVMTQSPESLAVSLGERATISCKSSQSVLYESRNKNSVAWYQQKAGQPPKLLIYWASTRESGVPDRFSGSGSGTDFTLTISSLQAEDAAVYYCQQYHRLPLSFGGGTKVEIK

The parent's light chain CDRs are KSSQSVLYESRNKNSVA, WASTRES, QQYHRLPLS; each variant's own CDRs replace them letter for letter.
Each Kd is an estimate from the mating assay, the geometric mean of the replicates in which the pair was seen; lower is stronger.
An entry "no signal" has no value in the source: the pair was not observed among the diploids in any replicate. This suggests poor binding but is not conclusive.
Entries are sorted by rising average, undetected variants last.
The range of this assay differs from that of the first round, and the authors advise against merging the two.
The authors averaged sequences with at least three values out of six and counted those with two or fewer as poor binders.
Nonspecific signal, from three strains lacking the peptide, appeared in 4% of pairings of all light chain designs, centred on 430 nM (5% of these signals below 38 nM); values are not corrected for it.
The parent sequence was in this pool as ten entries: three were never detected, three once, and four in most replicates, with averages from 2.2 nM to 240 nM.

CDR-L1 | CDR-L2 | CDR-L3 | group | apparent Kd | seen in
KLSQSELYESRNKNNVA | GASTRES | QQYHRLPLS | GP_Gen | 280 pM | 6/6
KFSGSVLYESRTKNSVA | NASTRES | QQYHRLPLS | GP_HC | 420 pM | 6/6
KVSQSELFESRNKNSVA | DASTRES | QQYHRLPLS | GP_HC | 450 pM | 6/6
KLSNSVLYQSRNKNSVA | NASTRYS | QQYHRLPLS | GP_Gibbs | 460 pM | 6/6
KLSQSFWYEERNKNSVA | NASKRES | QQYHRLPLS | GP_Gibbs | 620 pM | 6/6
KFSQSELYEERNQNSVA | GASTRLS | QQYHRLPLS | GP_Gibbs | 630 pM | 6/6
KMYQSGLYESRNKNSVA | SASMRES | QQYHRLPLS | GP_Gibbs | 660 pM | 6/6
KSGQGWLYESRNKNSVA | GASQRWS | QQYHRLPLS | GP_HC | 880 pM | 6/6
KISQMSTIESIMHNSVA | QTSTREN | QQYDRLPLS | En_HC | 890 pM | 6/6
KLSQSQLYESRMKNSVA | NASTREV | QQYHRLPLS | GP_Gen | 920 pM | 6/6
KLSQSWGGEWRNFNSVA | HASTREQ | QDYHRLPLS | GP_Gibbs | 1.0 nM | 6/6
KFSQSVLYESRNKNSVA | SASTRES | QQYHRLPLS | Ctrl | 1.0 nM | 6/6
KVFPSELGLSRNKMSVA | DASTRES | QQYHRLPLS | GP_Gibbs | 1.1 nM | 6/6
KSSQSVLYESRNKNSVA | DASFRES | QQYHRLPLS | GP_HC | 1.1 nM | 6/6
KLYQSQGYESRNKNSVA | NASTRES | QQYHRLPLS | GP_Gen | 1.1 nM | 6/6
KLYQSDLYESRNKNSVA | NASYRES | QQYHRLPLS | GP_Gen | 1.3 nM | 6/6
KLDQSYLYGSRNKNSVA | EASEREV | QQYHRLPLY | GP_Gibbs | 1.3 nM | 6/6
HLYQSELYESRMKNSVA | NASTRSS | QQYHRLPLS | GP_Gibbs | 1.4 nM | 6/6
IISQSSLGEYHNKNSVA | QTSERGS | QQYDRLPLS | En_HC | 1.4 nM | 6/6
KLSMITGHMHMSKNNVA | EMVTRAN | QQYDRLPLS | En_Gen | 1.6 nM | 6/6
KFSQSDLYESRNKNSVA | EASTRES | QQYHRLPLS | GP_Gen | 1.9 nM | 6/6
KLSQSVLYESRNKNNVA | GASTRSS | QQYHRLPLS | GP_Gen | 1.9 nM | 6/6
KSSQSVLEESSNKNSVA | WASMRES | QQYHRLPLS | Ctrl | 1.9 nM | 6/6
HLEQSELYESRMKNSVA | NASTRMS | QQYHRLPLS | GP_Gibbs | 2.0 nM | 6/6
HSSPYVLYESVNKNSVA | NASTRES | QDYHRLPLS | Rand | 2.3 nM | 6/6
KSMQSVQGEDRNKNSVA | EASTRCS | QQYHRLPLS | GP_Gibbs | 2.6 nM | 6/6
KLDQKNRWNGMANYNVA | DSNIRVD | QQYHRLPLI | En_Gibbs | 2.6 nM | 6/6
KISMLINQTFQMANNVA | EMVTRVK | QQYNRLPLS | En_Gen | 3.0 nM | 6/6
KLGDMVHTESRHKNSIA | DMRTRES | QQYYRLPLS | En_HC | 3.0 nM | 6/6
KIGSTLNQMMHKKNNVA | DLVTREN | QQYGRLPLS | En_Gen | 3.0 nM | 6/6
TLYGLSLSMSKNKNNVA | EMTTREK | QQYDRLPLI | En_Gen | 3.3 nM | 6/6
KIQQSVYYESLNQNSVA | NASTRLS | QQYHRLPLS | GP_Gibbs | 4.0 nM | 6/6
KLMQSQLYESRNKNSVA | NASTRLS | QQYHRLPLS | GP_Gen | 4.6 nM | 6/6
KIGAVTNGISRNKNSVA | EQSTRED | QQYNRLPLS | En_HC | 4.7 nM | 4/6
NMKVGLNFGGIQHQAIA | EVEKRES | QQYARLPLT | En_Gibbs | 5.3 nM | 6/6
KLMQSVLLESRNKNSVA | HASLRED | QQYHRLPLS | GP_HC | 7.3 nM | 6/6
KASQSFLYESRNKNSVA | GASTRES | QAYHRLPLS | GP_HC | 8.1 nM | 5/6
MLTMFANENQGWSNNIA | DTNNLNT | QQYSRLPFM | En_Gibbs | 8.5 nM | 6/6
KISQMVTYESTWHNAIA | QMSEREE | QQYHRLPLS | En_HC | 8.5 nM | 4/6
KISMLINTTFEQSNNVA | EMATREQ | QQYNRLPLS | En_Gen | 10 nM | 6/6
KFSQSVLYESRTKNSVA | NGSTRES | QWYHRLPLS | GP_HC | 11 nM | 1/6
KLEGSVEYESRWKNSVA | HASVREV | QQYHRLPLS | GP_Gibbs | 12 nM | 6/6
MMSQVTGMGQRHRNNVA | QTSTREA | QQYDRLPLV | En_Gen | 13 nM | 6/6
MISETLHMLGMKKNSIA | DLVLRAN | QQYHRLPLM | En_Gen | 21 nM | 6/6
TISQMSTLFSQSINNVA | EVSTREE | QQYDRLPLF | En_Gen | 24 nM | 2/6
KLRQSTLYESRNKNSVA | WASTRES | QQYHRLILS | Rand | 25 nM | 6/6
IVSNLMLWGYHAKNSIA | EAEMRTN | QQYDRLPLF | En_Gen | 29 nM | 6/6
MISQLFNMGQFAINSVA | QASTRCQ | QQYDRLPLM | En_Gen | 43 nM | 1/6
ELFFNDFQLAIQSNSIA | HASLREV | QQYAHLPLV | En_Gibbs | 47 nM | 4/6
KIDENTFHGANRQYNIA | ESRTVGA | QQYFRLPII | En_Gibbs | 59 nM | 5/6
KSKQSLLYESKNVNSVA | WASTREG | QQYKRLPLS | Ctrl | 85 nM | 2/6
MLSQMWGLGQHAKNSVA | QASMRFN | QQYHRLPLI | En_Gen | 87 nM | 3/6
KFSQWVLYESRCKNSVA | NASTRES | QQYHRLPLS | GP_HC | 91 nM | 6/6
KSSQSGLYESTNKNSVA | WASTRES | QQYHRLPLS | Ctrl | 100 nM | 5/6
KQSQSVLYDSRNHNSVA | WASTRES | QQYHRLPLG | Ctrl | 140 nM | 1/6
MFSQLFMYGSRNYNSVA | QASTRES | QQYDRLPLI | En_HC | 1.3 µM | 1/6
TFDHSYRFGALNTDSIA | HAEMRVA | QMYYRLPLM | En_Gibbs | no signal | 0/6
KMETYSQDNRLTISAIA | EAQTIYQ | QQYARLPLS | En_Gibbs | no signal | 0/6
MISQILNMGQFAINSVA | QASLRNE | QQYDRLPLA | En_Gen | no signal | 0/6
KSSQSVDYEGREKNSVA | WASTRES | QQYHCLPLS | Ctrl | no signal | 0/6
KSSQSVLTESRNKNSVA | YASTRRS | FQYHRLPLS | Ctrl | no signal | 0/6
KSAQSWLYESFNLNSVA | WASTRES | QQYHGLPLS | Ctrl | no signal | 0/6

The first 6 variants above that were never detected:

CDR-L1 | CDR-L2 | CDR-L3 | group | apparent Kd | seen in
TFDHSYRFGALNTDSIA | HAEMRVA | QMYYRLPLM | En_Gibbs | no signal | 0/6
KMETYSQDNRLTISAIA | EAQTIYQ | QQYARLPLS | En_Gibbs | no signal | 0/6
MISQILNMGQFAINSVA | QASLRNE | QQYDRLPLA | En_Gen | no signal | 0/6
KSSQSVDYEGREKNSVA | WASTRES | QQYHCLPLS | Ctrl | no signal | 0/6
KSSQSVLTESRNKNSVA | YASTRRS | FQYHRLPLS | Ctrl | no signal | 0/6
KSAQSWLYESFNLNSVA | WASTRES | QQYHGLPLS | Ctrl | no signal | 0/6